{"sequences": {"note": "By UniProt entry, the sequences of proteins in these tests, tags left out.", "UniProt P07947, whole entry, looked up": "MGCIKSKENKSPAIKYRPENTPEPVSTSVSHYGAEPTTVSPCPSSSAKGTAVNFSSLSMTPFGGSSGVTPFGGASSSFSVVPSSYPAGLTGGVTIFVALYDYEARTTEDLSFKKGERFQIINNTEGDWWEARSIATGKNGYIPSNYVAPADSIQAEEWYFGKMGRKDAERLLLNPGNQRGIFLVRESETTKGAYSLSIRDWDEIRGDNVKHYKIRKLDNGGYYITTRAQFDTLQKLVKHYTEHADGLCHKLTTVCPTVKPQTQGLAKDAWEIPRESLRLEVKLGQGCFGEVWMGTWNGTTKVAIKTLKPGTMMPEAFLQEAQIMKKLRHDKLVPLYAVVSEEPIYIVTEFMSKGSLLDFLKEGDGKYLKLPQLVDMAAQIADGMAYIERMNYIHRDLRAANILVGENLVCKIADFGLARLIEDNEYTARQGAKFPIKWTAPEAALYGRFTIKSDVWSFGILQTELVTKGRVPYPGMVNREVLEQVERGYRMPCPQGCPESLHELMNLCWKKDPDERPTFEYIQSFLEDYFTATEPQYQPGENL"}, "source": "PubChem BioAssay AID686948", "about": "(National Center for Advancing Translational Sciences (NCATS), 2013)", "molecular_target": "Tyrosine-protein kinase Yes (Homo sapiens) (UniProt P07947)", "assay": "qHTS for small molecule inhibitors of Yes1 kinase: Confirmatory screen on the cherrypicks", "details": "Recombinant Yes1, ADP-Glo luminescence, poly(E4Y) substrate", "excerpt": "The Src family of non-receptor protein tyrosine kinases contains nine members, including Yes1, Src, Fyn, Lyn, and […]. These kinases have important roles in a variety of cellular functions, such as cell proliferation, survival, and differentiation. Src, the most well characterized member of this family, has been previously identified as a proto-oncogene. […] In melanoma, it has been shown that Yes1, and not other family members, such as Src, is functionally involved in the malignant phenotype. Additionally, a recent study examining the downregulation of Yes1 by shRNA found significant effects on cell survival/growth for basal-like and Her2-positive breast cancers. […]\nTwo microliter of Yes1 enzyme (columns 1-2, 5-48; Millipore, Billerica, MA) are dispensed into Greiner, white solid-bottom 1536-well assay plates; columns 3 and 4 receive buffer without Yes1 as a control for maximum inhibition. […] The production of ADP is then quantified by the ADP-Glo Kit (Promega, Madison, WI). First, 2 uL of the first kit reagent is added, and the reaction is incubated for 45 minutes; then, 4 uL of the second kit reagent are added and the reaction is incubated for 30 minutes at which time the luminescence is read on a Viewlux plate reader (Perkin-Elmer, Waltham, MA). […]", "note": "The list shows a part of the results, in another mix than the full data. Activity calls are given as the source filed them. Calls follow the shape of the dose curve; as a rule, active = well fitted inhibition curve with a large enough effect; inactive = flat fitted curve, though single readings scatter.", "data": [{"smiles": "CCN1CCN(Cc2ccc(-c3cc4c(N[C@H](C)c5ccccc5)ncnc4[nH]3)cc2)CC1", "values": [{"measurement": "Potency", "result": "active: 17.5 nM"}]}]}
